Measured values as given in patent US20020055099A1, “SEQUENTIAL CDNA LIBRARY AND USES THEREOF” (priority 1999, published 2002).

Tests used:
[1] = test system: HO-1 human melanoma cells; test: SCLA reverse Northern hybridization of arrayed subtracted cDNA library with mRNAs from treated HO-1 cells; format: cell-based; conditions: IFN-β 2000 units/ml, MEZ 10 ng/ml, staurosporine 500 ng/ml, temporally pooled mRNAs
Protocol: Human HO-1 melanoma cells were grown in Dulbecco's modified Eagle' medium supplemented with 10% fetal calf serum, penicillin/streptomycin (100 U/100 μg/ml) at 37° C. in a 5% CO2 air humidified incubator (Fisher et al., 1985). Cells were refed with fresh growth medium and treated with 2,000 U/ml IFN-β, 10 ng/ml of MEZ in DMSO (final 0.1% DMSO), 2,000 U/ml IFN-β+10 ng/ml MEZ in DMSO (final 0.1% DMSO) or 500 ng/ml staurosporine.
Control and HO-1 cells treated with IFN-β, MEZ or IFN-β+MEZ were harvested at 2, 4, 8, 12, 24 and 48 hrs for RNA extraction. Staurosporine-treated HO-1 cells were harvested at 4, 8 and 24 hrs after treatment. Total RNA was prepared by lysis in 4 M guanidine isothiocyanate followed by ultracentrifugation through CsCl gradients (Sambrook et al., 1989). For temporally spaced cDNA libraries, control and IFN-β+MEZ-treated RNA samples from each time point were pooled and mRNA was purified by oligo (dT)-cellulose column chromatography (Sambrook et al., 1989). Control (DRIVER) and IFN-β+MEZ-treated (TESTER) temporally spaced cDNA libraries were constructed with a λZAP cDNA library kit as described by the manufacturer (Stratagene). A subtracted λZAP cDNA library (IFN-β+MEZ-treated minus control) was constructed as described previously (Jiang and Fisher, 1993).
Both prior to and after amplification, the subtracted cDNA library was plated at ˜500 plaques/15-cm bacterial culture plate to ensure good separation. Each plaque was manually isolated (by toothpick) and transferred to an individual well in a 384-well microtiter plate containing 50 μl SM-1 μl chloroform/well (primary working array) and stored at 4° C. This approach produced a primary un-amplified and a primary amplified working array. Additional secondary and tertiary arrays of the un-amplified and amplified subtracted cDNA library in 384-well plate containing 50 μl SM with 7% DMSO/well was prepared and stored at minus 80° C. for long term storage. After isolation, the remaining phage plaques were harvested from the plate for further applications including amplification. […]

[2] = test system: HO-1 human melanoma cells; conditions: HO-1 cells; IFN-β 2000 units/ml, MEZ 10 ng/ml where printed; cited from earlier work

Molecule: C=C(C)[C@@]12O[C@@]3(c4ccccc4)O[C@@H]1[C@@H]1[C@@H]4O[C@]4(CO)[C@@H](O)[C@]4(O)C(=O)C(C)=C[C@H]4[C@@]1(O3)[C@H](C)[C@H]2OC(=O)/C=C/C=C/c1ccccc1 [MEZ, mezerein]
- positive clones (DMAC) identified after treatment, of 427 positive clones [1]: 198 clones

B1: IFN-β: recombinant human fibroblast interferon, a type I interferon (protein, UniProt P01574 22-187, looked up)
Interferon beta: MSYNLLGFLQRSSNFQCQKLLWQLNGRLEYCLKDRMNFDIPEEIKQLQQFQKEDAALTIYEMLQNIFAIFRQDSSSTGWNETIVENLLANVYHQINHLKTVLEEKLEKEDFTRGKLMSSLHLKRYYGRILHYLKAKEYSHCAWTIVRVEILRNFYFINRLTGYLRN
- clones induced only by the agent (uniquely positive after a single treatment protocol) [1]: 32 clones
- positive clones (DMAC) identified after treatment, of 427 positive clones [1]: 198 clones
- effect on HO-1 cell growth [2]: growth suppression
- melanin synthesis / differentiation marker [2]: elevation in melanin synthesis
